The test system of one data set is HCT-8/MDR1(PTX) cells. How it is done: (§1) Host cell drug tolerance to specified inhibitors was evaluated by 3-(4,5-dimethylthiazol-2-yl)-5-(3-carboxymethoxyphenyl)-2-(4-sulfophenyl)-2H-tetrazolium (MTS) assay. WT and transgenic host cells were seeded in 96-well plates (10,000 cells/well) and cultured for 24 h, followed by the addition of specified compounds at serially diluted concentrations and continued culture for 41 h. After 3 washes with serum-free medium, MTS solution (Saint-Bio, Shanghai, China) was added into the plates (20 μL/well) and incubated at 37°C for 2 h. Optical density at 490 nm (OD490) was measured using a Synergy LX multi-mode reader (BioTek, Winooski, VT). Drug tolerance was indicated by half-maximal cytotoxic concentrations (TC50 values) calculated by nonlinear regression using 4PL model. Selectivity index (SI) for each compound was determined by the ratio between TC50 and EC50 values (SI = TC50/EC50).
(§2) Surviving cells were allowed to recover in drug-free medium for 3–5 d to near confluence (round 1). The selection/recovery cycle were repeated once (round 2). […] The resulting cell lines after PTX or NTZ selection were designated as WT(PTX), NC(PTX) and MDR1(PTX), or WT(NTZ), NC(NTZ) and MDR1(NTZ), respectively (Tables 1 and S2).

The test system of the next data set is HCT-8/WT cells. Briefly: MTS cytotoxicity (drug tolerance) assay. The following applies: no drug selection. How it is done: as §1
The test system of another data set is HCT-8/NC cells. In words: MTS cytotoxicity (drug tolerance) assay. As to conditions: no drug selection.
Another data set concerns HCT-8/WT(NTZ) cells. In words: MTS cytotoxicity (drug tolerance) assay. As to conditions: after selection by NTZ. The method, then: as §1
(§3) Surviving cells were allowed to recover in drug-free medium for 3–5 d to near confluence (round 1). The selection/recovery cycle were repeated once (round 2). […] Finally, all cells were cultured at the final selection concentrations of PTX or NTZ for ≥7 d, followed by culture in drug-free medium for 14 d. At this time point, cells were used for cytotoxicity and efficacy assays or cryopreserved in a liquid nitrogen tank. […]

For another data set, the system named is HCT-8/NC(NTZ) cells. Briefly: MTS cytotoxicity (drug tolerance) assay. As to conditions: after selection by NTZ. How it is done: as §1, §3
The subject of a further data set is HCT-8/NC(PTX) cells. In words: MTS cytotoxicity (drug tolerance) assay. The following applies: after selection by PTX. How it is done: as §1, §2
The next data set relates to HCT-8/MDR1(NTZ) cells. Briefly: MTS cytotoxicity (drug tolerance) assay. As to conditions: after selection by NTZ. How it is done: as §1, §2
For another data set, the system named is HCT-8/WT(PTX) cells. In words: MTS cytotoxicity (drug tolerance) assay. As to conditions: after selection by PTX. How it is done: as §1, §2
The next data set deals with HCT-8/MDR1 cells. In words: MTS cytotoxicity (drug tolerance) assay. The following applies: no drug selection.

As to Ivermectin, the TC50 in the data set on HCT-8/MDR1(PTX) cells (MDR1(PTX) cells, after selection by PTX) was 36.37 µM; in the data set with HCT-8/WT cells it was 15.52 µM; in the data set with HCT-8/NC cells it was 15.29 µM; in the data set with HCT-8/WT(NTZ) cells, 14.75 µM; in the data set with HCT-8/NC(NTZ) cells, 15.18 µM; in the data set with HCT-8/NC(PTX) cells, 14.64 µM. For the same substance, the TC50 worked out at 22.59 µM in the data set with HCT-8/MDR1(NTZ) cells, 14.51 µM with HCT-8/WT(PTX) cells and 24.02 µM in the data set on HCT-8/MDR1 cells. Also, in the data set on HCT-8/MDR1(PTX) cells (MDR1(PTX) vs NC cells), the “Pct change of TC50 (vs NC)” value stood at 137.9%.

The values are drawn from article PMC10079235 (PLOS Neglected Tropical Diseases, 2023).
